# Patent US20030073850A1, “4-Imidazole derivatives of benzyl and restricted benzyl sulfonamides, sulfamides, ureas, carbamates, and amides and their use” (priority 1998, published 2003)
# By UniProt entry, the sequences of proteins in these tests, tags left out.
# UniProt P23944, whole entry: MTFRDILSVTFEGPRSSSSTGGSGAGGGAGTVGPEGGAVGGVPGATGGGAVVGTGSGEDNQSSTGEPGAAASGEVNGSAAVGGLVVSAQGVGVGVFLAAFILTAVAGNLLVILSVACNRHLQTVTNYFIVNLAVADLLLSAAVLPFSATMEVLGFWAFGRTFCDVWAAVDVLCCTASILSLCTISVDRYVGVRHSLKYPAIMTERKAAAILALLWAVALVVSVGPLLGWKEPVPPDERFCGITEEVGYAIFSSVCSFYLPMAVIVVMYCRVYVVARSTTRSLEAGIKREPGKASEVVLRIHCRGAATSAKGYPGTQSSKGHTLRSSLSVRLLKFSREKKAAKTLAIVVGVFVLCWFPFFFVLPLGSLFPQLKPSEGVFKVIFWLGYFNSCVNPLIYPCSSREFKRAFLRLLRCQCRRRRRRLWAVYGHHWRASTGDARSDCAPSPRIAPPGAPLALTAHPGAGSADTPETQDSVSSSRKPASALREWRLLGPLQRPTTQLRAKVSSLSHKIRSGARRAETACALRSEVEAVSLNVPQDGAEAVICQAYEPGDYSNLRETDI
# Biological target: T1, α1d (rat receptor expressed in mouse fibroblasts) (Rattus norvegicus, UniProt P23944)
# T1 construct: expressed in transfected cells; host or cells: mouse fibroblasts
# Test: Radioligand binding, [3H]-prazosin, α1d
# Method: For purposes of discussing a, adrenoceptor subtypes, the IUPHAR convention of using lower case letters to define molecular clones and upper case letters to indicate pharmacologically defined adrenoceptors has been followed. Compounds of formula I were evaluated in radioligand binding assays specific for α1A (rat submaxillary gland), α1b (hamster receptor expressed in mouse fibroblasts) and α1d (rat receptor expressed in mouse fibroblasts) using [^3H]-prazosin as the radioligand as described in Knepper, et al. J. Pharm.
structure (smiles),measurement,value
"CS(=O)(=O)Nc1cccc2c1OCCC2c1c[nH]cn1.O=C(O)/C=C\C(=O)O (single isomer, unassigned; (+)) [Example 93, (+) N-[4-(1H-imidazol-4-yl)-3,4-dihydro-2H-chromen-8-yl]methanesulfonamide Maleate]",Ki,10 µM
